Data on 11 compounds can be found in PubChem BioAssay AID1347419 (Sanford-Burnham Center for Chemical Genomics, 2020).

Chains of the proteins cited; added tags and fusions are not shown.
UniProt Q14289, whole entry, looked up: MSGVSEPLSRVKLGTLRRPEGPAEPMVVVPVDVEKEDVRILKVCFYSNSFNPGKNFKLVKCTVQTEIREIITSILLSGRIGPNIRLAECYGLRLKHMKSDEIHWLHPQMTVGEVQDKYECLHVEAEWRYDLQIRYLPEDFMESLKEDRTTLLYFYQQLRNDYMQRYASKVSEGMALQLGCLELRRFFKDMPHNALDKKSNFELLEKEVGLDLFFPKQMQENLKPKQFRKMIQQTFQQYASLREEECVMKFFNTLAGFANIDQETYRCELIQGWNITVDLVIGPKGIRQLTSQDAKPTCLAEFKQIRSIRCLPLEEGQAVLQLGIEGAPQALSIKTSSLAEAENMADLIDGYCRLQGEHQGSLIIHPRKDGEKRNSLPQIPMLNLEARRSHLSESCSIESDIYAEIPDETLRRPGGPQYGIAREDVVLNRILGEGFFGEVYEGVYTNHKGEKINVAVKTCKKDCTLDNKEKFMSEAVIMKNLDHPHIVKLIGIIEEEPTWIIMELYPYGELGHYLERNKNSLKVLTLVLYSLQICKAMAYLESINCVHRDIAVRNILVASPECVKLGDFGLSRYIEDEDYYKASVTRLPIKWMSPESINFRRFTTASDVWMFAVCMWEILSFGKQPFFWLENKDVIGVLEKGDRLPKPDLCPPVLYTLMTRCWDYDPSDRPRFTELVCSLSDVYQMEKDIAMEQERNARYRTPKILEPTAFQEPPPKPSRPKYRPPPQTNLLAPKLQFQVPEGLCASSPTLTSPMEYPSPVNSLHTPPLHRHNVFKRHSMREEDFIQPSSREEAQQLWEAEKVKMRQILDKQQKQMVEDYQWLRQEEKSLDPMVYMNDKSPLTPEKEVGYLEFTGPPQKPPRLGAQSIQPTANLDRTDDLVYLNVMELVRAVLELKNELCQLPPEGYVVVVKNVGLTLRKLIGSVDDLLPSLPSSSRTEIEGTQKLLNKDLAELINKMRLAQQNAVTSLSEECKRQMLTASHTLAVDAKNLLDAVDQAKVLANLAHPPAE

Only a part is listed here, and it is no random draw. The source made the active and inactive calls.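 How the source made its calls: active means Z-score of -3 or lower, scaled per plate to the spread of control and sample wells; inactive means z-score above -3.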

For this assay, the target named is Protein-tyrosine kinase 2-beta (Homo sapiens) (UniProt Q14289). In words: Pyk2 FERM oligomerization blockers – Q293 cells, FERM NanoBiT luminescence, HTS, primary screen (AID 1347419).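 Further: the deposit names both 25 µM and 10 µM; negative z-score means lost luminescence so less FERM oligomerization.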 Set-up: dose or concentration left out as unconfirmed. As to conditions: hits give low values.
For the compound `CCC(CO)(C(=O)OC1CN2CCC1CC2)c1ccccc1` (stereo unspecified), the z-score was inactive: 1.37.

Consider `CCOc1ncccc1C(=O)NCC1(N2CCOCC2)CCCCC1`, for which the z-score was inactive: 1.

Regarding `Fc1ccccc1NC1CCN(Cc2ccccc2)CC1`, the z-score is inactive: 0.84.

With `c1ccc(CN2CCC(Nc3ccccc3)CC2)cc1`, the z-score is inactive: 1.19.

For `N/C(=N\O)c1c(N)no[n+]1[O-]`, the z-score is inactive: 0.58.

Regarding `CN1CCC(Nc2cccc(F)c2)CC1`, the z-score was inactive: 1.59.

For the compound `O=C(NCC1(N2CCOCC2)CCCCC1)c1cc(=O)[nH]c2ccccc12`, the z-score is inactive: 0.68.

In the case of `N#CC1(Nc2ccccc2)CCN(CCc2ccccc2)CC1`, the z-score was inactive: -0.13.

As for `COc1ccc(NC2CCN(CCc3ccccc3)CC2)c(OC)c1`, the z-score is inactive: -0.33.

Take `O=C(NCC1(N2CCOCC2)CCCCC1)c1cc2ccccc2o1`: the z-score was inactive: -0.86.

For `O=C(OC1CN2CCC1CC2)C1c2ccccc2Oc2ccccc21` (stereo unspecified), the z-score was inactive: -0.32.
